Measured values reported in the kinase profiling compilation of Christmann-Franck et al. (2016).

Protein sequences, listed by entry. Tags and fused reporters are not part of them.
PRKCQ (human), Q04759, UniProt Q04759, whole entry P330L, looked up: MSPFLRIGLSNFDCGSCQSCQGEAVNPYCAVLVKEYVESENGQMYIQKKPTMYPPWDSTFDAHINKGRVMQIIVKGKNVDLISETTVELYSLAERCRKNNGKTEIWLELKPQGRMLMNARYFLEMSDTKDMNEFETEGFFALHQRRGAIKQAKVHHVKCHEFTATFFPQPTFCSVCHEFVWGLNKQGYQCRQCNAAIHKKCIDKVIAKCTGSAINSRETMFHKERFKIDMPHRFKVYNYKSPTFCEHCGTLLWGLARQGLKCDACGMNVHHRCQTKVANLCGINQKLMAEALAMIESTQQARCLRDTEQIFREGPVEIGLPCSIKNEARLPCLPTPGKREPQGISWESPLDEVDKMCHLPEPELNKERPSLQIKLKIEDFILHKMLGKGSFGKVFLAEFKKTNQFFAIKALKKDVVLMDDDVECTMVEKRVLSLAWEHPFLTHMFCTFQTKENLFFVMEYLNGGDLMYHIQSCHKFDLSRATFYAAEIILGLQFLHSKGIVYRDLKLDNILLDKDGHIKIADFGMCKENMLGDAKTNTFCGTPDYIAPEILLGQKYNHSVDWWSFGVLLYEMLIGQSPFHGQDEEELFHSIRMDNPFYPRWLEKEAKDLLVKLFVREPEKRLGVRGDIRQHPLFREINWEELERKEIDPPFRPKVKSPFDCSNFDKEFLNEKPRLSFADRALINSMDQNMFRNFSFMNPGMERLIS
MAP2K6 (human), P52564, UniProt P52564, whole entry S207E/T211E, looked up: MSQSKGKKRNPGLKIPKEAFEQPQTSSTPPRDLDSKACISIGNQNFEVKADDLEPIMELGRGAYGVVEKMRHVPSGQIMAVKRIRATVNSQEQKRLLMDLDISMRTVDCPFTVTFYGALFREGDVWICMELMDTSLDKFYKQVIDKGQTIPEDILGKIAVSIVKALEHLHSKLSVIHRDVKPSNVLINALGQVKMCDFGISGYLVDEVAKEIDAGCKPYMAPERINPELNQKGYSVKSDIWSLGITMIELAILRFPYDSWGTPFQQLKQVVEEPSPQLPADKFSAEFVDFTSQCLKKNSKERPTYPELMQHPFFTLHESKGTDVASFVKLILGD
FLT4 (human), P35916, UniProt P35916, whole entry, looked up, stated change not applied: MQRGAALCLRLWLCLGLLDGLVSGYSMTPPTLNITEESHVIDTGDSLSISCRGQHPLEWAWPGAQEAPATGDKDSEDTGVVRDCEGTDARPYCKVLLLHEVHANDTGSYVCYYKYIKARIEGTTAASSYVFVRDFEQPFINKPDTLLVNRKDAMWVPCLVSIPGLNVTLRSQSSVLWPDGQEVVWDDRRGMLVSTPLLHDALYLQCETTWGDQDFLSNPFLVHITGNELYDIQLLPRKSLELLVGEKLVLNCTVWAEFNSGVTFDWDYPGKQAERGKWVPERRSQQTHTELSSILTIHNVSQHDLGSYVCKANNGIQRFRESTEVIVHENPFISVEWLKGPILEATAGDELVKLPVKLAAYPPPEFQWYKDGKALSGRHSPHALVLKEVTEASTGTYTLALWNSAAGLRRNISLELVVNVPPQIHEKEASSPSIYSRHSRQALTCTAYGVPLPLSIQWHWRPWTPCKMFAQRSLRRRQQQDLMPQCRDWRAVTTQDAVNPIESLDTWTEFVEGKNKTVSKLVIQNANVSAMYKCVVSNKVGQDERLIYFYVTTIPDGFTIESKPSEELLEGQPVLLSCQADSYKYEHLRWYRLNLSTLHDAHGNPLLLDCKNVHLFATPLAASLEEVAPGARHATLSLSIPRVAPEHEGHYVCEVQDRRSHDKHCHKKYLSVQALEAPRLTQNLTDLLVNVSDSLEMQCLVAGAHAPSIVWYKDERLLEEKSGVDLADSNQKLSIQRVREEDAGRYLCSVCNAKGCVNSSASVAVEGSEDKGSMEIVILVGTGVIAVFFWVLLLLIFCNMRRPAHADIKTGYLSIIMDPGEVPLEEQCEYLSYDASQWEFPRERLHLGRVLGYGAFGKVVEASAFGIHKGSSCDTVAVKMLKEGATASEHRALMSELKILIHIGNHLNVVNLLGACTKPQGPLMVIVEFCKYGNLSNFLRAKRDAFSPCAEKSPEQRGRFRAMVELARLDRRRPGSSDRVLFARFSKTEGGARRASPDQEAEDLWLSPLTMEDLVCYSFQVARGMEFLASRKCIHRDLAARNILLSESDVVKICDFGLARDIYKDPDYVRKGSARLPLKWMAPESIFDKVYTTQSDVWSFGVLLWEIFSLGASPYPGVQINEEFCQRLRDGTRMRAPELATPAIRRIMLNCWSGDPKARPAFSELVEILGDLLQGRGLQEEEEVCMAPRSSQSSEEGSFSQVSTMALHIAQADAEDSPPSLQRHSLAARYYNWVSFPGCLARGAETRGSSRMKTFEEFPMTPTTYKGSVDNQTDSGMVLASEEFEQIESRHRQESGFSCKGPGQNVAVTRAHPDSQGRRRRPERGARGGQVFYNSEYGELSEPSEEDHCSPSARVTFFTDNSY
MKNK1 (human), Q9BUB5, UniProt Q9BUB5, whole entry, looked up, stated change not applied: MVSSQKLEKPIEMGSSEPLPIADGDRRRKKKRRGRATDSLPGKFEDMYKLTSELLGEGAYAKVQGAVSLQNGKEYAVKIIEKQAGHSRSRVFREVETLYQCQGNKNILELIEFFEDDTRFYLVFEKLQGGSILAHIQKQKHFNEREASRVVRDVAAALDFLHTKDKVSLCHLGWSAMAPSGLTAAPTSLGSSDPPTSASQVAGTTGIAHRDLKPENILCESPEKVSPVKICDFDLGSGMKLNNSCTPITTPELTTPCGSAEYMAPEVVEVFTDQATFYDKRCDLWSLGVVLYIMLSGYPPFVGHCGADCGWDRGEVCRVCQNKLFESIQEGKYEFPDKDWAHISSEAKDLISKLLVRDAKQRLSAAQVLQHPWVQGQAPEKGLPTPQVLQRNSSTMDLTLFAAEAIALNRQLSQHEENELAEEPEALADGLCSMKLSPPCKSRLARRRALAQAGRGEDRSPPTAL

Key:
Experiment in all cases: radiometric filter-binding kinase assay, Kinase HotSpot
Conditions in all cases: compound 0.5 µM; ATP 10 µM
[1] = test system: PRKCQ (human), Q04759 [P330L]
[2] = test system: MAP2K6 (human), P52564 [S207E/T211E]
[3] = test system: FLT4 (human), P35916 [Q890H]
[4] = test system: MKNK1 (human), Q9BUB5 [T385D; 165-205 del]

residual activity [1] [%] | residual activity [2] [%] | residual activity [3] [%] | residual activity [4] [%] | SMILES
93 | 89.2 | 99.7 | 110 | CO[C@H]1[C@@H](OC)C[C@H](C)[C@@H](OC)C2=CC(=O)C=C(NC(=O)/C(C)=C\C=C/[C@H](OC)[C@@H](OC(N)=O)/C(C)=C\[C@@H]1C)C2=O
79.3 | 114 | 94.8 | 90.4 | O=C1c2ccccc2-[n+]2ccc3c([nH]c4ccccc43)c21
94.3 | 92 | 105 | 105 | COc1cc(OC)c(/C=C2\C(=O)Nc3ccccc32)c(OC)c1

SMILES | residual activity [1] [%] | residual activity [2] [%] | residual activity [3] [%] | residual activity [4] [%]
O=C1Nc2ccc3ncsc3c2/C1=C/c1c[nH]cn1 | 112 | 56.8 | 12.1 | 9.89
